Values joined by “and” are separate entries in the source; they are usually repeats but may differ in a detail not shown here. Equal values may be shown once. Read-outs that look alike come from different tables or passages of the source.

Assay [1] has as its system HBV in HepG2.2.15 cells. The conditions noted are these: for Relavive secreted HBV DNA level(Folds), Sample1-3: individual samples; for inhibition of HBV DNA secretion in combination: Chou-Talalay.
For assay [2], the system named is HBV in HepG2.2.15 cells. The conditions noted are these: for Relavive intracellular HBV DNA level(Folds), Sample1-3: individual samples; for inhibition of intracellular HBV DNA levels in combination: Chou-Talalay.
Setting [3] is: 0.1 μM (in combinations: ciclopirox concentration).
The mark [4] stands for this setting: 0.2 μM (in combinations: ciclopirox concentration).
[5] abbreviates: 0.5 μM (in combinations: ciclopirox concentration).
Setting [6] is: 1 μM (in combinations: ciclopirox concentration).
Setting [7] is: 2 μM (in combinations: ciclopirox concentration).
Setting [8] is: 5 μM (in combinations: ciclopirox concentration).
[9] abbreviates: 10 μM (in combinations: ciclopirox concentration).
Setting [10] is: 0.1–10 μM ciclopirox combined with 1 μM ETV.
[11] abbreviates: 0.1–10 μM ciclopirox combined with 1 μM TDF.

For `C=C1[C@H](CO)[C@@H](O)C[C@@H]1n1cnc2c(=O)[nH]c(N)nc21` [ETV, entecavir], the “Relavive secreted HBV DNA level(Folds), AVERAGE” value with HBV in HepG2.2.15 cells [1] (setting [3]) was 1.0783 Folds; with HBV in HepG2.2.15 cells [1] (setting [4]), 0.7059 Folds; in the assay with HBV in HepG2.2.15 cells [1] (setting [5]) it was 0.5143 Folds; in the assay with HBV in HepG2.2.15 cells [1] (setting [6]) it was 0.2012 Folds; with HBV in HepG2.2.15 cells [1] (setting [7]), 0.1944 Folds; in the assay with HBV in HepG2.2.15 cells [1] (setting [8]), 0.0746 Folds. In the assay on HBV in HepG2.2.15 cells [1] (setting [9]), the “Relavive secreted HBV DNA level(Folds), AVERAGE” value worked out at 0.0414 Folds. The “Relavive secreted HBV DNA level(Folds), Sample1-3” value in the assay with HBV in HepG2.2.15 cells [1] (setting [3]) is 1.0727 Folds and 1.1087 Folds and 1.0536 Folds; in the assay on HBV in HepG2.2.15 cells [1] (setting [4]), 0.7066 Folds and 0.7053 Folds and 0.7059 Folds; with HBV in HepG2.2.15 cells [1] (setting [5]), 0.5200 Folds and 0.5166 Folds and 0.5062 Folds; in the assay with HBV in HepG2.2.15 cells [1] (setting [6]), 0.2707 Folds and 0.1484 Folds and 0.1843 Folds; in the assay with HBV in HepG2.2.15 cells [1] (setting [7]), 0.1993 Folds and 0.1758 Folds and 0.2081 Folds; with HBV in HepG2.2.15 cells [1] (setting [8]) it was 0.0889 Folds and 0.0624 Folds and 0.0724 Folds. The “Relavive secreted HBV DNA level(Folds), Sample1-3” value with HBV in HepG2.2.15 cells [1] (setting [9]) was 0.0303 Folds and 0.0511 Folds and 0.0429 Folds. In addition, the “Relavive intracellular HBV DNA level(Folds), AVERAGE” value was 0.9787 Folds in the assay on HBV in HepG2.2.15 cells [2] (setting [3]); 0.7931 Folds with HBV in HepG2.2.15 cells [2] (setting [4]); 0.4576 Folds with HBV in HepG2.2.15 cells [2] (setting [5]); 0.3876 Folds with HBV in HepG2.2.15 cells [2] (setting [6]); 0.1647 Folds in the assay on HBV in HepG2.2.15 cells [2] (setting [7]); 0.1146 Folds in the assay with HBV in HepG2.2.15 cells [2] (setting [8]). Also, in the assay on HBV in HepG2.2.15 cells [2] (setting [9]), the “Relavive intracellular HBV DNA level(Folds), AVERAGE” value came to 0.0442 Folds. For the same compound, the “Relavive intracellular HBV DNA level(Folds), Sample1-3” value was 0.9427 Folds and 1.02 Folds and 0.9736 Folds in the assay with HBV in HepG2.2.15 cells [2] (setting [3]); 0.7871 Folds and 0.8763 Folds and 0.7159 Folds with HBV in HepG2.2.15 cells [2] (setting [4]); 0.45 Folds and 0.4365 Folds and 0.4862 Folds in the assay with HBV in HepG2.2.15 cells [2] (setting [5]); 0.3707 Folds and 0.4077 Folds and 0.3843 Folds in the assay with HBV in HepG2.2.15 cells [2] (setting [6]); 0.1693 Folds and 0.1305 Folds and 0.1941 Folds in the assay with HBV in HepG2.2.15 cells [2] (setting [7]); 0.07091 Folds and 0.1489 Folds and 0.1239 Folds with HBV in HepG2.2.15 cells [2] (setting [8]). Moreover, the “Relavive intracellular HBV DNA level(Folds), Sample1-3” value with HBV in HepG2.2.15 cells [2] (setting [9]) was 0.02841 Folds and 0.06145 Folds and 0.04287 Folds.
With `Cc1cc(C2CCCCC2)n(O)c(=O)c1` [Ciclopirox, 6-cyclohexyl-1-hydroxy-4-methyl-2(1 H)-pyridone], the “inhibition of HBV DNA secretion in combination” value in the assay with HBV in HepG2.2.15 cells [1] (setting [10]) and in the assay with HBV in HepG2.2.15 cells [1] (setting [11]) was “synergistic inhibition” throughout. Besides, the “inhibition of intracellular HBV DNA levels in combination” value in the assay with HBV in HepG2.2.15 cells [2] (setting [10]) and in the assay with HBV in HepG2.2.15 cells [2] (setting [11]) was “synergistic inhibition” throughout.
On to `C[C@H](Cn1cnc2c(N)ncnc21)OCP(=O)(O)O` [TDF, tenofovir], for which the “Relavive secreted HBV DNA level(Folds), AVERAGE” value with HBV in HepG2.2.15 cells [1] (setting [3]) was determined as 0.9790 Folds; with HBV in HepG2.2.15 cells [1] (setting [4]), 0.6990 Folds; in the assay with HBV in HepG2.2.15 cells [1] (setting [5]) it was 0.5046 Folds; in the assay with HBV in HepG2.2.15 cells [1] (setting [6]) it was 0.2157 Folds; in the assay with HBV in HepG2.2.15 cells [1] (setting [7]), 0.1277 Folds; in the assay with HBV in HepG2.2.15 cells [1] (setting [8]), 0.0725 Folds. Besides, the “Relavive secreted HBV DNA level(Folds), AVERAGE” value in the assay on HBV in HepG2.2.15 cells [1] (setting [9]) is given as 0.0465 Folds. Moreover, the “Relavive secreted HBV DNA level(Folds), Sample1-3” value was 0.9655 Folds (2×) and 1.0059 Folds in the assay with HBV in HepG2.2.15 cells [1] (setting [3]); 0.6085 Folds and 0.7329 Folds and 0.7556 Folds in the assay on HBV in HepG2.2.15 cells [1] (setting [4]); 0.5016 Folds and 0.5166 Folds and 0.4955 Folds in the assay with HBV in HepG2.2.15 cells [1] (setting [5]); 0.2232 Folds and 0.2185 Folds and 0.2055 Folds with HBV in HepG2.2.15 cells [1] (setting [6]); 0.1185 Folds and 0.149 Folds and 0.1155 Folds with HBV in HepG2.2.15 cells [1] (setting [7]); 0.05055 Folds and 0.07854 Folds and 0.08856 Folds with HBV in HepG2.2.15 cells [1] (setting [8]). Besides, the “Relavive secreted HBV DNA level(Folds), Sample1-3” value in the assay with HBV in HepG2.2.15 cells [1] (setting [9]) was 0.03155 Folds and 0.06155 Folds and 0.04655 Folds. For the same compound, the “Relavive intracellular HBV DNA level(Folds), AVERAGE” value with HBV in HepG2.2.15 cells [2] (setting [3]) is recorded as 0.9955 Folds; in the assay with HBV in HepG2.2.15 cells [2] (setting [4]) it was 0.7990 Folds; in the assay on HBV in HepG2.2.15 cells [2] (setting [5]), 0.5046 Folds; in the assay on HBV in HepG2.2.15 cells [2] (setting [6]), 0.3157 Folds; in the assay on HBV in HepG2.2.15 cells [2] (setting [7]), 0.2277 Folds; in the assay with HBV in HepG2.2.15 cells [2] (setting [8]), 0.0725 Folds. In addition, the “Relavive intracellular HBV DNA level(Folds), AVERAGE” value in the assay with HBV in HepG2.2.15 cells [2] (setting [9]) is reported as 0.0465 Folds. Also, the “Relavive intracellular HBV DNA level(Folds), Sample1-3” value is 0.9846 Folds and 1.063 Folds and 0.9389 Folds in the assay with HBV in HepG2.2.15 cells [2] (setting [3]); 0.7755 Folds and 0.8669 Folds and 0.7546 Folds in the assay with HBV in HepG2.2.15 cells [2] (setting [4]); 0.5105 Folds and 0.5127 Folds and 0.4905 Folds in the assay with HBV in HepG2.2.15 cells [2] (setting [5]); 0.3245 Folds and 0.3181 Folds and 0.3045 Folds in the assay on HBV in HepG2.2.15 cells [2] (setting [6]); 0.2406 Folds and 0.2199 Folds and 0.2224 Folds in the assay with HBV in HepG2.2.15 cells [2] (setting [7]); 0.06546 Folds and 0.09564 Folds and 0.05655 Folds with HBV in HepG2.2.15 cells [2] (setting [8]). The “Relavive intracellular HBV DNA level(Folds), Sample1-3” value with HBV in HepG2.2.15 cells [2] (setting [9]) is 0.04458 Folds and 0.0513 Folds and 0.04376 Folds.
